Measurements reported in PubChem BioAssay AID1326 (NMMLSC, 2008).
Only a part is listed here, and it is no random draw. Calls of active or inactive are those of the source. No stated cut-off is given here; in the data, active means inhibition above about 40%; inactive means the rest.

By UniProt entry, the sequences of proteins in these tests, tags left out.
UniProt P08183, whole entry: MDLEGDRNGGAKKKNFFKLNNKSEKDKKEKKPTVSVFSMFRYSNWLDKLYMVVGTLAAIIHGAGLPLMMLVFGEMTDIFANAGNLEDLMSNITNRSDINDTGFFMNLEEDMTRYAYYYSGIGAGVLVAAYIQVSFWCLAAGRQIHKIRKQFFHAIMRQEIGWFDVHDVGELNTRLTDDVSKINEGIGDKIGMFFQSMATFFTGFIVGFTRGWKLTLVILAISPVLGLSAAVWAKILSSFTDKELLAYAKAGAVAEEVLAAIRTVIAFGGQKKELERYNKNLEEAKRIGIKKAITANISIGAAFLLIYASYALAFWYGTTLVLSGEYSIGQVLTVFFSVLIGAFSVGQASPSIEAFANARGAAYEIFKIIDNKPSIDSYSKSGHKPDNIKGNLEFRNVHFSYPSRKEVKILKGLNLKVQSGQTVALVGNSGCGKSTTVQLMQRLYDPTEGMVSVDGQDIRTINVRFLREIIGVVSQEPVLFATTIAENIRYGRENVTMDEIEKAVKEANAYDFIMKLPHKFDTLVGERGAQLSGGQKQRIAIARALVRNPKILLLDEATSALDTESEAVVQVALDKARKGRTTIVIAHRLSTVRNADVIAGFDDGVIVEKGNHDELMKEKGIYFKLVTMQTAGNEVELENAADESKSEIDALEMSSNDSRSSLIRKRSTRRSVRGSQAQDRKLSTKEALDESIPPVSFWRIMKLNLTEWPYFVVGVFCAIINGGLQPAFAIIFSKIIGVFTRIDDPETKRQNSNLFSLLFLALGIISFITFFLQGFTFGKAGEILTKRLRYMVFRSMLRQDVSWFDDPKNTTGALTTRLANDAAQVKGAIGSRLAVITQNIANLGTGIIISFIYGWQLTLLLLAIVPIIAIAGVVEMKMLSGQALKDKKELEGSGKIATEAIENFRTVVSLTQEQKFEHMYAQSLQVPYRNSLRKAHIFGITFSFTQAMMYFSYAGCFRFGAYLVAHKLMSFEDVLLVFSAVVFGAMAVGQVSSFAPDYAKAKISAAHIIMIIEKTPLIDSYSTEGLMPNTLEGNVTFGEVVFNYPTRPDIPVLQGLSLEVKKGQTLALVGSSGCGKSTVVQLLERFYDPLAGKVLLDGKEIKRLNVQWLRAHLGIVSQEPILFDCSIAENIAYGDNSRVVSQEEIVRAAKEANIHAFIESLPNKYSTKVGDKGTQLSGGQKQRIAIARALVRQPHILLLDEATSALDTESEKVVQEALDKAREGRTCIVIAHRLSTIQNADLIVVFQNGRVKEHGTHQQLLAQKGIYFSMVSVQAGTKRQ

target: ATP-dependent translocase ABCB1 (Homo sapiens) (UniProt P08183); assay: ABCB1 efflux pump inhibitors, primary screen, cell-based, multiplex, flow cytometry, ABCG2 counter-screen (AID 1326); settings: CCRF-Adr cells, JC-1 efflux, at 6.6 µM, hits give high values;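 further: 0% = vehicle and 100% = reference inhibitor; higher value means more JC-1 retained so stronger ABCB1 efflux block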

| SMILES | inhibition |
| --- | --- |
| Cc1c(NP(C)(=O)Oc2ccc(C(C)C)cc2)c(=O)n(-c2ccccc2)n1C (stereo not drawn) | inactive: 0.3% |
| O=[N+]([O-])c1cc([N+](=O)[O-])c(Nc2ccccn2)c([N+](=O)[O-])c1 | inactive: 0.06% |
| CP(=O)(Nc1ccccn1)Oc1ccccc1 (stereo not drawn) | inactive: 0.83% |
| COc1ccccc1OP(C)(=O)Nc1ccc(C)cc1C (stereo not drawn) | inactive: 0.66% |
| CCc1ccc(OP(C)(=O)O)cc1 | inactive: -0.13% |
| COc1ccc(OP(C)(=O)Nc2ccccn2)cc1 (stereo not drawn) | inactive: 0.13% |
| CN(C)CCOC(=O)C(O)(c1ccccc1)C1CCCC1 (stereo not drawn) | inactive: -0.06% |
| Cc1nc2ccc3ccccc3c2o1.O=[N+]([O-])c1cc([N+](=O)[O-])c(O)c([N+](=O)[O-])c1 | inactive: 0.36% |
| CP(=O)(Nc1ccc(Cl)cc1Cl)Oc1ccccc1 (stereo not drawn) | inactive: 1.07% |
| CP(=O)(OCCOc1ccccc1)OCCOc1ccccc1 | inactive: 1% |
| Cc1cc(C)cc(OP(C)(=O)Nc2cccc(C(F)(F)F)c2)c1 (stereo not drawn) | inactive: 0.91% |
| COc1ccccc1OP(C)(=O)Nc1ccc(C)c(C)c1 (stereo not drawn) | inactive: 0.12% |
| COc1ccc(OP(C)(=O)Nc2ccccc2Br)cc1 (stereo not drawn) | inactive: 0.59% |
| CCOC(=O)c1ccc(NP(C)(=O)Oc2ccc(Cl)cc2)cc1 (stereo not drawn) | inactive: 1.4% |
| CP(=O)(OC12CC3CC(CC(C3)C1)C2)OC12CC3CC(CC(C3)C1)C2 | inactive: 0.09% |
| COc1ccccc1OP(C)(=O)Nc1ccccc1Br (stereo not drawn) | inactive: 0.08% |
| CC(C)(C)c1ccc(OP(C)(=O)O)cc1 | inactive: -0.01% |
| CP(=O)(Nc1ccc(Cl)cc1)Oc1ccc(F)cc1 (stereo not drawn) | inactive: 1.01% |
| CN(C)C(=O)c1c([N+](=O)[O-])cc([N+](=O)[O-])cc1[N+](=O)[O-] | inactive: 0.39% |
| CCN(CC)CC(O)COC(=O)C(O)(c1ccccc1)C1CCCCC1 (stereo not drawn) | inactive: 0.34% |
| COc1ccc(OP(C)(=O)Nc2ccc(Br)cc2)cc1 (stereo not drawn) | inactive: 0.8% |
| CP(=O)(Oc1ccccc1)N1CCOC1=O (stereo not drawn) | inactive: 0.26% |
| CCc1ccc(OP(C)(=O)Nc2cccnc2)cc1 (stereo not drawn) | inactive: -0.13% |

| SMILES | inhibition |
| --- | --- |
| CP(=O)(Nc1ccc2c(c1)OCCO2)Oc1ccccc1 (stereo not drawn) | inactive: -0.5% |
| Cc1ccccc1NP(C)(=O)Nc1ccccc1C | inactive: 0.45% |
| CCOP(C)(=S)SCC(=O)NC(C)(CC)C(=O)O (stereo not drawn) | inactive: -2.82% |
| O=[N+]([O-])c1cc([N+](=O)[O-])c(NCC2CCS(=O)(=O)C2)c([N+](=O)[O-])c1 (stereo not drawn) | inactive: 1.29% |
| COc1ccc(OP(C)(=O)Nc2cccc(Br)c2)cc1 (stereo not drawn) | inactive: 2.02% |
| CN(C)CCOC(=O)C(O)(c1ccccc1)C1CCCCC1 (stereo not drawn) | inactive: 0.34% |
| COc1ccc(NP(C)(=O)Oc2ccccc2OC)cc1 (stereo not drawn) | inactive: 0.51% |
| CCN(CC)CCCOC(=O)C(O)(c1ccccc1)C1CCCCC1 (stereo not drawn) | inactive: 0.29% |
| CP(=O)(Nc1ccccc1)Oc1ccc(F)cc1 (stereo not drawn) | inactive: 0.34% |
| CCOC(=O)c1ccc(NP(C)(=O)Oc2ccc(F)cc2)cc1 (stereo not drawn) | inactive: 0.57% |
| COc1ccc(OP(C)(=O)Nc2ccc(SC(F)(F)F)cc2)cc1 (stereo not drawn) | inactive: 0.16% |
| O=C(OCCN1CCN(CCOCc2ccccc2)CC1)C(O)(c1ccccc1)c1ccccc1 | inactive: 1.8% |
| CP(=O)(Nc1ccccc1F)Oc1ccccc1 (stereo not drawn) | inactive: 1.7% |
| CC(C)c1ccc(OP(C)(=O)Nc2ccc(SC(F)(F)F)cc2)cc1 (stereo not drawn) | inactive: 0.07% |
| Cc1ccc(C)c(NP(C)(=O)Oc2ccccc2)c1 (stereo not drawn) | inactive: -0.07% |
| Cc1cc(C)cc(OP(C)(=O)Nc2ccccn2)c1 (stereo not drawn) | inactive: 1.12% |
| CP(=O)(Nc1cccc(Br)c1)Oc1ccccc1 (stereo not drawn) | inactive: 1.42% |
| CCOC(=O)c1ccc(NP(C)(=O)Oc2cc(C)cc(C)c2)cc1 (stereo not drawn) | inactive: 0.83% |
| Cc1cc(C)cc(OP(C)(=O)Nc2ccc(C)cc2C)c1 (stereo not drawn) | inactive: -0.16% |
| CC1=NCCc2c1[nH]c1ccccc21.O=[N+]([O-])c1cc([N+](=O)[O-])c(O)c([N+](=O)[O-])c1 | inactive: -0.22% |
| CN1CCCCC1COC(=O)C1(O)c2ccccc2CCc2ccccc21 (stereo not drawn) | inactive: 0.56% |
| COc1ccccc1OP(C)(=O)Nc1c(C)cccc1C (stereo not drawn) | inactive: 0.21% |
| CCCOc1ccc(NP(C)(=O)Oc2ccc(Cl)cc2)cc1 (stereo not drawn) | inactive: 0.12% |

| SMILES | inhibition |
| --- | --- |
| CP(=O)(Nc1ccc(SC(F)(F)F)cc1)Oc1ccccc1 (stereo not drawn) | inactive: 0.17% |
| Cc1nc2ccc3ccccc3c2s1.O=[N+]([O-])c1cc([N+](=O)[O-])c(O)c([N+](=O)[O-])c1 | inactive: -1.13% |
| O=[N+]([O-])c1cc([N+](=O)[O-])c(-n2nnc3ccccc32)c([N+](=O)[O-])c1 | inactive: 0% |
| CCOC(=O)c1ccc(NP(C)(=O)Oc2ccc(OC)cc2)cc1 (stereo not drawn) | inactive: 0.46% |
| CCOP(C)(=S)SCC(=O)NC(C)C(=O)O (stereo not drawn) | inactive: 0.03% |
| CP(=O)(Nc1ccccn1)Oc1ccc(Cl)cc1 (stereo not drawn) | inactive: 0.23% |
| Cc1cccc(C)c1OP(C)(=O)Nc1ccc(SC(F)(F)F)cc1 (stereo not drawn) | inactive: -0.31% |
| CP(=O)(Oc1ccccc1)OC(c1ccccc1)C(F)(F)F (stereo not drawn) | inactive: 1.01% |
| CP(=O)(NC(=O)Nc1ccccc1)Oc1ccccc1 (stereo not drawn) | inactive: 0.1% |
| Cc1cc(C)cc(OP(C)(=O)Nc2ccc(SC(F)(F)F)cc2)c1 (stereo not drawn) | inactive: 0.5% |
| CP(=S)(Nn1cnnc1)Oc1ccccc1 (stereo not drawn) | inactive: 0.6% |
| CP(=O)(Nc1ccccc1Br)Oc1ccccc1 (stereo not drawn) | inactive: 0.24% |
| COc1ccccc1OP(C)(=O)Nc1ccccc1 (stereo not drawn) | inactive: 0.14% |
| COc1ccccc1OP(C)(=O)Nc1ccc(C)cc1 (stereo not drawn) | inactive: -0.18% |
| Cc1ccc(NP(C)(=O)Oc2ccccc2)c(C)c1 (stereo not drawn) | inactive: 0.9% |
| CCOC(=O)c1ccc(NP(C)(=O)Oc2ccccc2)cc1 (stereo not drawn) | inactive: -1.37% |
| COc1ccccc1OP(C)(=O)Nc1cc(Cl)ccc1C (stereo not drawn) | inactive: 0.39% |
| COc1ccc(OP(C)(=O)Nc2cccc(F)c2)cc1 (stereo not drawn) | inactive: 0.28% |
| O=[N+]([O-])c1ccc2c(c1)C=Nc1ccccc1O2 | inactive: 0.33% |
| CC(C)(C)c1ccc(OP(C)(=O)Nc2ccc(SC(F)(F)F)cc2)cc1 (stereo not drawn) | inactive: 0.58% |
| Cc1cccc(C)c1OP(C)(N)=O (stereo not drawn) | inactive: 0.43% |
| CCN(CC)CCCOC(=O)C(O)(c1ccccc1)c1ccccc1 | inactive: 1.66% |
